Measured values from paper doi:10.1101/2024.02.25.581915 (bioRxiv, 2024).

Target: INTS7 (recombinant, in the reconstituted DSS1–INTAC complex) (human, UniProt Q9NVH2)
Assay: cryo-EM structure

binding result: binds
B1: DSS1 in the reconstituted DSS1–INTAC complex (pLVX-DSS1-WT co-expressed in Expi293F) (natural protein)
chain: MSEKKQPVDLGLLEEDDEFEEFPAEDWAGLDEDEDAHVWEDNWDDDNVEDDFSNQLRAELEKHGYKMETS
